Source: PubChem BioAssay AID1346984 (Tox21, 2019)
This is a selection; strong and weak results do not stand in their true shares. Some tests of the compounds listed are not included; inactive here does not mean inactive elsewhere. Records with an inconclusive call do not appear. Activity calls are given as the source filed them. Calls come from the whole dose curve; as a rule, active = well fitted activation curve with a large enough effect in the repeat runs; inconclusive = weak or mixed curves; inactive = no such curve, though single readings can be large or run the other way.
% is set by controls: 0 for no effect and ±100 for the full control effect.
Note: nearly all actives have a fitted effect of over 40% in size.

What follows are compounds tested against Nuclear receptor subfamily 1 group I member 2 (Homo sapiens) (UniProt O75469) (assay: CYP3A4 induction through human pregnane X receptor (PXR) by small molecules, qHTS assay). Conditions: DPX-2 HepG2 PXR, CYP3A4-luciferin luminescence, 24 h; at 46.1 µM (top of the series).
From the text: National Center for Advancing Translational Sciences [NCATS]
NIH Chemical Genomics Center [NCGC]
U.S. Environmental Protection Agency [EPA]
National Institutes of Environmental Health Sciences [NIEHS]
National Toxicology Program [NTP]
The Pregnane X receptor (PXR), a ligand activated nuclear receptor plays a critical role in the regulation of genes involved in drug metabolism and transporters. Activation of PXR is responsible for unwanted adverse drug reactions. PXR binds xenobiotics and when compounds interact with PXR enhances the expression of CYP3A genes. Identifying the compounds with the potential for PXR activation and CYP3A4 induction can be of importance in improving the efficacy of drugs with less toxicity and avoiding drug-drug interactions.
DPX-2 (Puracyp, Inc.) cell lines, used for screening against human PXR activation has HepG2 cells co-transfected with a PXR response element and a luciferase construct containing CYP3A4 promoter. […]
DPX-2 cells were dispensed at 2,000 cells per well in 5uL of assay medium into white, solid-bottom 1536-well plates using a Multidrop Combi dispenser (Thermo Scientific). […] Then 5ul One-Glo assay reagent (Promega) was added to each plate by an FRD and following 30 min incubation at room temperature, luciferase activity was quantified on a ViewLux plate reader (Perkin Elmer).
In the case of `CN1CCCC(OC(=O)C(O)(c2ccccc2)c2ccccc2)C1` (stereo unspecified), the activation is reported as inactive: 18.5%.
